In patent publication US7601357B2 (priority 2005, dated 2009):

Target: T1, LIPY (Mycobacterium tuberculosis, UniProt I6Y2J4)
T1 construct: The 24 open-reading frames (ORFs) were amplified from the genomic DNA of M. tuberculosis H37Rv; 6xHis (pET200 D-TOPO N-terminal fusion) (N); made in house; host or cells: E. coli BL21 Star (DE3)
T1 sequence (I6Y2J4 1-437): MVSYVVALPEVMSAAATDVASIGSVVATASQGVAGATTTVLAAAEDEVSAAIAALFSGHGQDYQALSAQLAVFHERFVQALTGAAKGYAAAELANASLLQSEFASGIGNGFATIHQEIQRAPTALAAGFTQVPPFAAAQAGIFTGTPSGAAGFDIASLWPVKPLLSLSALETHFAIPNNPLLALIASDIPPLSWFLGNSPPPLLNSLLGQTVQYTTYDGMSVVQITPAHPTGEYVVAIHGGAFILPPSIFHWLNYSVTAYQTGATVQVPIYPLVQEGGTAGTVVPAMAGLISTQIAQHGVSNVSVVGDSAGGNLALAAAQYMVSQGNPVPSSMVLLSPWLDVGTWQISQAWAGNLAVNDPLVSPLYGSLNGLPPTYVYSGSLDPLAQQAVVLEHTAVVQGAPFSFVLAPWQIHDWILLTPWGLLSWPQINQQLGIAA
Assay type: biochemical

SMILES: O=S(=O)(F)Cc1ccccc1 [PMSF, phenylmethanesulfonyl fluoride, reference compound]
- Inhibition of LIPY activity: 75%
